Source: ChEMBL document CHEMBL1132600, “Substrate specificity and stereoselectivity of rat brain microsomal anandamide amidohydrolase” (J Med Chem, 1999)

Chains of the proteins cited; added tags and fusions are not shown.
UniProt P20272, whole entry: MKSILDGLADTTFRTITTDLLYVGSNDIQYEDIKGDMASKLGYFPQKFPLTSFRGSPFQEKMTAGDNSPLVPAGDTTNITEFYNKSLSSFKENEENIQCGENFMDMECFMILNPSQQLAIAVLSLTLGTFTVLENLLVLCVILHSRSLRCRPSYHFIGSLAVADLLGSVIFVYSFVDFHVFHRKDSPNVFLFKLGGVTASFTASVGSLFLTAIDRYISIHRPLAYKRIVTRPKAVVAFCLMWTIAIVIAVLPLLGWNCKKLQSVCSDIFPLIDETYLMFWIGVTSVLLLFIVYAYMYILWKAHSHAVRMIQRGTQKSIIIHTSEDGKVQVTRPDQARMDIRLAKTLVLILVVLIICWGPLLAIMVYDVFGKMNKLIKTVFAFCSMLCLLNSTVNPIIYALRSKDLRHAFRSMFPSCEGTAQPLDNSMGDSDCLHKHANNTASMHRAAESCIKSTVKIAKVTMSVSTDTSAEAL

Molecular target: Cannabinoid receptor 1 (Rattus norvegicus, UniProt P20272)
Assay: Tested for binding affinity to Cannabinoid receptor 1

| SMILES | Ki [nM] |
| --- | --- |
| CCCCC/C=C\C/C=C\C/C=C\C/C=C\CCCC(=O)N[C@@H](C)CO | 173 |
| CCCCC/C=C\C/C=C\CCCCCCCC(=O)NCCO [LINOLEOYLETHANOLAMIDE] | > 10000 |
